Literature values, collected in US9757385B2, “Method of treating leukemia using pharmaceutical formulation containing thienotriazolodiazepine compounds” (ONCOETHIX GmbH, priority 2013, dated 2017).

Biological target: mTOR (Homo sapiens, UniProt P42345)
Conditions: cited from earlier work

GDC-0349
Ki: 3.8 nM
